This test has as its target HDAC3:SMRT complex (Homo sapiens, UniProt O15379+Q9Y618). Kind of test: Circular dichroism thermal-stability assay. The settings on record: CD at 222 nm; 14 μM HDAC3:SMRT; 200 μM InsP6 and/or 40 μM SAHA; unliganded 45 °C. On the technique in general: CD spectra are sensitive to the conformation of chiral molecules.

Protein sequences, listed by entry. Tags and fused reporters are not part of them. Lines headed by an entry give the natural chain unless they say otherwise; changes in a name come on top. Residues count along the entry.
UniProt O15379: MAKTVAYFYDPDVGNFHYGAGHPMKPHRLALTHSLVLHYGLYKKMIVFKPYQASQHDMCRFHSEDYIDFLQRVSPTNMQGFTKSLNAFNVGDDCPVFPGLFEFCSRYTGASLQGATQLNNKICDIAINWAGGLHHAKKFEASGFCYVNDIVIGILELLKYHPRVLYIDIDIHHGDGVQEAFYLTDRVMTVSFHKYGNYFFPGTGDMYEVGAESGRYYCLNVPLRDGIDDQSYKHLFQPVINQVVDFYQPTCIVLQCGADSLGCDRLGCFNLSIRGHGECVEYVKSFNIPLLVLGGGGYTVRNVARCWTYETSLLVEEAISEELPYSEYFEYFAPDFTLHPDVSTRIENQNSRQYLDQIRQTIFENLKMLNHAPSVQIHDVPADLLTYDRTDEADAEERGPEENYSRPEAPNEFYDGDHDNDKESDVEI
UniProt Q9Y618, 350-480: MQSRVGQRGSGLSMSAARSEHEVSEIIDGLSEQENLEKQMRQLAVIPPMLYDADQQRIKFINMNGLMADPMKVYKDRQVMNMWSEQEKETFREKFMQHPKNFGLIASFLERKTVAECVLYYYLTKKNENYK

For `O=P(O)(O)O[C@H]1[C@H](OP(=O)(O)O)[C@@H](OP(=O)(O)O)[C@H](OP(=O)(O)O)[C@@H](OP(=O)(O)O)[C@H]1OP(=O)(O)O` [InsP6, inositol hexaphosphate], the “Tm (melting temperature of the complex)” value was 53 °C.

These data come from publication PMC4848466, “Insights into the activation mechanism of class I HDAC complexes by inositol phosphates” (Nature Communications, 2016).
